The assay has as its target human α-thrombin (recombinant) (human) (UniProt P00734). The assay is described as follows: cell-based or functional assay.

As to β-variegin (peptide), the IC50, inhibition of thrombin amidolytic activity is 118 nM.

These data come from patent US20190002511A1.
